Test results reported in patent US10407511B2, “Covalently linked helicar-anti-helicar antibody conjugates and uses thereof” (Hoffmann-La Roche Inc., priority 2014, dated 2019).

Amino acid sequences for entries named in this document (tags omitted).
UniProt P50391, whole entry, species assumed: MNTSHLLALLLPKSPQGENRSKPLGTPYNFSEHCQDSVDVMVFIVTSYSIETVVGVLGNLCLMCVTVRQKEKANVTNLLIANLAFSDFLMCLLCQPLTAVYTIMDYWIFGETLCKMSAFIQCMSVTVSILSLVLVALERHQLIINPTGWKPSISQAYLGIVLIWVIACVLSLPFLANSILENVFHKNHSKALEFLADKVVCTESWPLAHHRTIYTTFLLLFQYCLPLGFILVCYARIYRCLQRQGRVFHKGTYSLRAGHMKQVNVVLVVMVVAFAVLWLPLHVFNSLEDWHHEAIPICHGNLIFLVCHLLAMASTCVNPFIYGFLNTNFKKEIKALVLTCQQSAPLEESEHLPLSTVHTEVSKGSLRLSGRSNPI

Target: NPY4R (Homo sapiens, UniProt P50391)
Assay: effect on Y2Receptor family: NPY4R
Assay type: cell-based

Compound: CC[C@H](C)[C@H](N)C(=O)N[C@@H](CCCCN)C(=O)N1CCC[C@H]1C(=O)N[C@@H](CCC(=O)O)C(=O)N[C@@H](C)C(=O)N1CCC[C@H]1C(=O)NCC(=O)N[C@@H](CCC(=O)O)C(=O)N[C@@H](CC(=O)O)C(=O)N[C@@H](C)C(=O)N[C@@H](CO)C(=O)N1CCC[C@H]1C(=O)N[C@@H](CCC(=O)O)C(=O)N[C@@H](CCC(=O)O)C(=O)N[C@@H](CC(C)C)C(=O)N[C@@H](CC(N)=O)C(=O)N[C@@H](CCCNC(=N)N)C(=O)N[C@@H](Cc1ccc(O)cc1)C(=O)N[C@@H](Cc1ccc(O)cc1)C(=O)N[C@@H](C)C(=O)N[C@@H](CO)C(=O)N[C@@H](CC(C)C)C(=O)N[C@@H](CCCNC(=N)N)C(=O)N[C@@H](Cc1c[nH]cn1)C(=O)N[C@@H](Cc1ccc(O)cc1)C(=O)N[C@@H](CC(C)C)C(=O)N[C@@H](CC(N)=O)C(=O)N[C@@H](CC(C)C)C(=O)N[C@H](C(=O)N[C@H](C(=O)N[C@@H](CCCNC(=N)N)C(=O)N[C@@H](CCC(N)=O)C(=O)N[C@@H](CCCNC(=N)N)C(=O)N[C@@H](Cc1ccc(O)cc1)C(N)=O)[C@@H](C)O)C(C)C [PYY(3-36)]
- NPY4R (listed as PYY(3 -36) charge 1): 162 nM
- NPY4R (listed as PYY(3 -36) charge 2): 131 nM
